Measured values from publication PMC8105262 (Molecular imaging and biology, 2020).

By UniProt entry, the sequences of proteins in these tests, tags left out.
UniProt Q9JIS5, whole entry: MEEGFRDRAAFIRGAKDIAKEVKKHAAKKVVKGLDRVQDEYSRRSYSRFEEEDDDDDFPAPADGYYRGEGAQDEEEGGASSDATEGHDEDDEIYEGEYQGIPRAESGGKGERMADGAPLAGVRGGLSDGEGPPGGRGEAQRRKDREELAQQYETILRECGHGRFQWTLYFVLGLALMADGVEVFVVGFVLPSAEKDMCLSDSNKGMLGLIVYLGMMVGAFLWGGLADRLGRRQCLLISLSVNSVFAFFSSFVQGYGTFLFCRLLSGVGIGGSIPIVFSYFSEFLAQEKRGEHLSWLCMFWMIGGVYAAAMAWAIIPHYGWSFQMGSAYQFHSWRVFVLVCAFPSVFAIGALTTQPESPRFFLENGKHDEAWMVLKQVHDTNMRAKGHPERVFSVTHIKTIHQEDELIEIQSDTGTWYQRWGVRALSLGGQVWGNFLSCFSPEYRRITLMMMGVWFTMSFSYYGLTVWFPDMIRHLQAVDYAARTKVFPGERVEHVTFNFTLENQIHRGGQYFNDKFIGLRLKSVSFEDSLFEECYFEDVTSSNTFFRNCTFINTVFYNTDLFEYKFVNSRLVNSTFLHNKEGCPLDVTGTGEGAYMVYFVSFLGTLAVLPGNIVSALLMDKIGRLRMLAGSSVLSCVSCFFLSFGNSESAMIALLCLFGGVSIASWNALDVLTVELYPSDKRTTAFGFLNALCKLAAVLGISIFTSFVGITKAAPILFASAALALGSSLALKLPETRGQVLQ

Molecular target: SV2A (Mus musculus, UniProt Q9JIS5)
Assay type: binding
Conditions: levetiracetam 1 mM, mouse brain sections

CC[C@@H](C(N)=O)N1CCCC1=O [levetiracetam, reference compound]
Effect of co-incubation on total [^18F]SynVesT-1 binding signal: reduced total binding signal to nonspecific levels
